The subject of the experiment is 6-week old C57/B6 mice. Briefly: Topical treatment of shaved dorsal skin of young mice: pigmentation and hair growth. It counts as in vivo. The following applies: 16 mM in Transdermal Gel, topical every other day, vs control. As for the experimental part:
Mice were topically (unless indicated otherwise) treated every other day with the indicated amount and photos were taken every week. Mice were monitored for the appearance of skin pigmentation, signaling the initiation of anagen. No hair growth (and no pigmentation) was assigned the arbitrary value of 0. Skin darkening was given a value from 0 to 100%, with the higher number indicating darker skin and visible hair growth.
Compounds were dissolved in Transdermal Gel at 16 mM and applied on mice dorsal skin every other day. To show the pigmentation progression, the appearance of skin pigmentation, signaling the initiation of anagen, was assigned an arbitrary value based on skin darkening. No hair growth (and no pigmentation) was assigned a value of 0 and darker skin/visible hair growth was assigned with higher numbers. Photos were taken weekly to document the pigmentation/hair changes.
Dorsal hair was shaved by trimmer at Week 7 and α-KB acid was dissolved in Transdermal Gel at 16 mM and applied on mice dorsal skin every other day.

Structures are written as SMILES. “Also recorded” adds a separate entry of the source.

For `O=C(O)CCC(=O)C(=O)O` [α-KG, alpha-ketoglutarate], the hair growth result was “longer and thicker hair than control; also recorded: stimulates hair growth by Day 14”; the “skin pigmentation (initiation of anagen)” value was “pigmentation burst was observed after one week; also recorded: reduces age-related pigmentation loss; also recorded: improves hair pigmentation”.

For the origin of these results see patent US20230144845A1, “Alpha-Ketobutyrate, 2-Hydroxybutyrate, and Alpha-Ketoglutarate for Stimulating Hair Growth” (The Regents of the University of California, priority 2016, published 2023).
